The chains behind the UniProt entries cited, without tags or fusion partners.
UniProt P47746, whole entry: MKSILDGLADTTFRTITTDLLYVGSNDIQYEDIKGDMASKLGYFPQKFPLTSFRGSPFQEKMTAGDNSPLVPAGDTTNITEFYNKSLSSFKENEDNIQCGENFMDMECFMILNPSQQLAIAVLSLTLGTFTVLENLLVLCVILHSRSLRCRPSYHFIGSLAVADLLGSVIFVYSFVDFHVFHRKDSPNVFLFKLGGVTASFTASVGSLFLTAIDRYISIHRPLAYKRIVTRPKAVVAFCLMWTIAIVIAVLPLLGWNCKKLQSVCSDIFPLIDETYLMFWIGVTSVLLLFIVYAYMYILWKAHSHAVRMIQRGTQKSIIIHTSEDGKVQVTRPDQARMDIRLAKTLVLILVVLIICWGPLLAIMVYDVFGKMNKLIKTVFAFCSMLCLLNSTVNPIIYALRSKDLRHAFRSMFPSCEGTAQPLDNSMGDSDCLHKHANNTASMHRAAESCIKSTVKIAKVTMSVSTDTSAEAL

According to US20240358672A1, “APPLICATION OF GENISTEIN AND ITS PHOSPHATE ESTER DERIVATIVE AND PHARMACEUTICAL COMPOSITION COMPRISING THE SAME” (National Taiwan University, priority 2023, published 2024):

Target: CB1 receptor (Mus musculus, UniProt P47746)
Assay: Confocal co-localization with CB1 receptor in mouse thoracic aorta
Conditions: rimonabant pretreatment 30 min

Structure (SMILES): Cc1c(C(=O)NN2CCCCC2)nn(-c2ccc(Cl)cc2Cl)c1-c1ccc(Cl)cc1 [rimonabant]
- effect on BODIPY517/547-genistein binding and fluorescence: reduced BODIPY517/547-genistein binding and fluorescence significantly
